Measurements published in PubChem BioAssay AID1974 (The Scripps Research Institute Molecular Screening Center, 2009).
The entries are a selection whose mix differs from that of the whole data set. The source made the active and inactive calls.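 How the source made its calls: active means inhibition above the campaign mean inhibition plus 3 SD (cut at about 35% in these data); inactive means the rest.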

Amino acid sequences for entries named in this document (tags omitted).
UniProt P78417, whole entry: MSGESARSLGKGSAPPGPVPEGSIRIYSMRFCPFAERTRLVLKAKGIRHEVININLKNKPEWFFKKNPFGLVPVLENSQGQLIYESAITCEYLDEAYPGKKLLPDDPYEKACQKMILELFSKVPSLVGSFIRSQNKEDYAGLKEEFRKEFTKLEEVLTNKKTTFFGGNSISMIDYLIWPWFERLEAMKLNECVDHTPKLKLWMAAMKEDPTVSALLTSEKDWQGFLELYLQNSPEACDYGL

Target: Glutathione S-transferase omega-1 (Homo sapiens) (UniProt P78417)
Assay: inhibitors of recombinant GSTO1, primary screen, counter-screen for RBBP9 inhibitor project, biochemical, fluorescence polarization (AID 1974);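 further: 0% = GSTO1-1 with DMSO and 100% = wells lacking GSTO1-1 enzyme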
Settings: recombinant GSTO1, activity-based probe fluorescence polarization; at 5.96 µM; hits give high values

Row | SMILES | inhibition
1 | COc1ccc(OP(C)(=O)Nc2ccccn2)cc1 (stereo unspecified) | inactive: 11.7%
